The values below are quoted from earlier work in patent publication EP0348490B1, “TREATMENT OF TYPE 2 DIABETES MELLITUS” (AMYLIN PHARMACEUTICALS, INC., priority 1988, dated 1995).

The test system of this data set is islet B-cells. The settings on record: cited from earlier work.

Consider “CGRP: calcitonin gene related peptide, shown to be a potent inhibitor of glucose stimulated insulin secretion (ACDTATCVTHRLAGLLSRSGGVVKNNFVPTNVGSKAF; Calcitonin gene-related peptide 1; UniProt P06881 83-119, looked up)”, for which the “inhibition of glucose stimulated insulin secretion (literature)” value was “potent inhibitor”.
